Assay results reported in ChEMBL document CHEMBL4190239, “A novel structural class of coumarin-chalcone fibrates as PPARα/γ agonists with potent antioxidant activities: Design, synthesis, biological evaluation and molecular docking studies” (Eur J Med Chem, 2017).

Chains of the proteins cited; added tags and fusions are not shown. Lines headed by an entry give the natural chain unless they say otherwise; changes in a name come on top.
UniProt P37231: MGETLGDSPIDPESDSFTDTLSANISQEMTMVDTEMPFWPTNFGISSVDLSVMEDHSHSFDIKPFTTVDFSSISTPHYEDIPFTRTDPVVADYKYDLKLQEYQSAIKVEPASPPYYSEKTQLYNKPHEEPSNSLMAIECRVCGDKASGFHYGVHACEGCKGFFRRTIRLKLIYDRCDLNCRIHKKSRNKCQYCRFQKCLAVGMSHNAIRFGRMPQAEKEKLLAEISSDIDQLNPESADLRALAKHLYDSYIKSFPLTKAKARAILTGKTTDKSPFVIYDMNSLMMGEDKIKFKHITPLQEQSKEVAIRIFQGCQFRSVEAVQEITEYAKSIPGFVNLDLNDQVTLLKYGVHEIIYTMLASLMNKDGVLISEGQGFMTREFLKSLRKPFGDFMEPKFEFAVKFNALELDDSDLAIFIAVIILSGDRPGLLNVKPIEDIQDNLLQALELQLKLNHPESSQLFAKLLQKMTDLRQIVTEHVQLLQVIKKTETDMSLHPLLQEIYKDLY

Molecular target: Peroxisome proliferator-activated receptor gamma (Homo sapiens, UniProt P37231)
Experiment: Agonist activity at GAL4-fused PPARgamma LBD (unknown origin) expressed in HEK293 cells assessed as receptor transactivation at 10 uM after 18 hrs by dual luciferase reporter gene assay
Format: cell-based

| SMILES | fold change (FC) |
| --- | --- |
| CC(C)(Oc1ccc(C(=O)c2cc3c(ccc4ccccc43)oc2=O)cc1)C(=O)O | 1.3 |
| CCOC(=O)C(C)(C)Oc1ccc(C(=O)C2Cc3ccccc3OC2=O)cc1 (centres undefined) | 1.31 |
| CCOC(=O)C(C)(C)Oc1ccc(C(=O)c2cc3cc(N)ccc3oc2=O)cc1 | 0.88 |
| CCOC(=O)C(C)(C)Oc1ccc(C(=O)c2cc3cc(F)ccc3oc2=O)cc1 | 1.19 |
